Structures are written as SMILES.

The results in this text go back to patent US10208003B2, “Synthesis of amine substituted 4,5,6,7-tetrahydrobenzothiazole compounds” (KNOPP BIOSCIENCES LLC, priority 2011, dated 2019).

The conditions of the data set: qualitative statement.

For `CCCN[C@@H]1CCc2nc(N)sc2C1.Cl.Cl` [Form A, (R)-(+)-2-amino-4,5,6,7-tetrahydro-6-(n-propylamino)benzothiazole dihydrochloride], the solubility in water result is “highly soluble in water”.
